# Test results from ChEMBL document CHEMBL3745662, “Preliminary investigation of 6,7-dihydropyrazolo[1,5-a]pyrazin-4-one derivatives as a novel series of mGlu5 receptor positive allosteric modulators with efficacy in preclinical models of schizophrenia” (Bioorg Med Chem Lett, 2016).
# System: Rattus norvegicus
# Experiment: Antipsychotic-like activity in po dosed Sprague-Dawley rat assessed as reversal of amphetamine-induced hyperlocomotion
# Format: functional
# Settings: read-out: MED
smiles,measurement,value
O=C1c2cc(COc3ccccc3)nn2CCN1c1ccc(F)cn1,minimal effective dose,3 mg/kg
